From patent publication US20240360179A1, “STAPLED PEPTIDES AND METHODS THEREOF” (FOG PHARMACEUTICALS, INC., priority 2021, published 2024)

Chains of the proteins cited; added tags and fusions are not shown.
UniProt P35222, whole entry: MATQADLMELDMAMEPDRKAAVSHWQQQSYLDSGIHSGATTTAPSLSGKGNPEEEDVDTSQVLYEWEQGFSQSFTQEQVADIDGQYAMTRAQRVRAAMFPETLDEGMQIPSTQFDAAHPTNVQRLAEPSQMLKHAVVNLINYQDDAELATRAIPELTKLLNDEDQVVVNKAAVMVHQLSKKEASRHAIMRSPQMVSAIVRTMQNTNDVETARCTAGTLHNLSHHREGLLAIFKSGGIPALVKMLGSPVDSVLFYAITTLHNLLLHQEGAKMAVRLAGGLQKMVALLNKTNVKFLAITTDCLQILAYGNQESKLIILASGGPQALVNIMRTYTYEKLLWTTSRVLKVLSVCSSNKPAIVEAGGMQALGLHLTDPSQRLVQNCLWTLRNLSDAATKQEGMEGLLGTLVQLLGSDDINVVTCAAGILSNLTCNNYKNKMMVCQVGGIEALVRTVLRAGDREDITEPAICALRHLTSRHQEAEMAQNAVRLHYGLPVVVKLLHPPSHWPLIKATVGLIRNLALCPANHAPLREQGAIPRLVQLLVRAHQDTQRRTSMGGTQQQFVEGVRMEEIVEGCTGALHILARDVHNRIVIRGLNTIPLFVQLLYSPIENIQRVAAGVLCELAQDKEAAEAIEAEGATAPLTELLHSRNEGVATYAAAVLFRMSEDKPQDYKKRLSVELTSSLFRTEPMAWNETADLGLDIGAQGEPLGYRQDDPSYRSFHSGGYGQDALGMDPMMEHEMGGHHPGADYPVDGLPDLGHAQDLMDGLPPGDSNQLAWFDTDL

Assays:
[1] = molecular target: beta-catenin/TCF4 interaction (Homo sapiens, UniProt P35222); assay: cell-based; design: host or cells: HEK293; details: NanoBRET Abs IC50 (uM)
[2] = molecular target: T1, full-length B-Catenin (Uniprot ID P35222) (Homo sapiens, UniProt P35222); assay: biochemical; format: binding; details: beta-Catenin FP IC50 (nM), competition fluorescence polarization
T1 construct: 10 nM full-length B-Catenin (Uniprot ID P35222)

Row | IC50 [1] | IC50 [2] | IC50 ([1]; absolute IC50) | Structure (SMILES)
1 | 3 to 10 µM | < 50 nM |  | CC(=O)N1CCC[C@]12CC=CCCCC1(CCCC=CCCCOC(=O)N3CC[C@@]4(C3)NC(=O)[C@H](CCCCNC(=O)CC[C@@H](C(=O)N[C@@H](C)C(N)=O)NC(=O)[C@H](Cc3csc5ccccc35)NC(=O)[C@H](Cc3ccccc3C(F)(F)F)NC4=O)NC(=O)[C@H](Cc3ccccc3)NC(=O)[C@H](C)NC(=O)[C@H](CCC(N)=O)NC(=O)[C@H](Cc3cccc(C(=O)O)c3)NC(=O)[C@H](CC(=O)O)NC1=O)NC(=O)[C@H](CC(C)(C)C)NC(=O)[C@H](CC(=O)O)NC2=O (relative stereo) [I-60, Ac-PL3-Asp-Npg-B5-Asp-3COOHF-Gln-Ala-Phe-Lys*3-PyrS2-2F3MeF-BztA-GlnR*3-Ala-NH2]
2 | 1.5 to 3 µM | < 50 nM |  | CC(=O)N1CCC[C@]12CC=CCCCC1(CCCC=CCCCOC(=O)N3CC[C@@]4(C3)NC(=O)[C@H](CCCCNC(=O)CC[C@@H](C(=O)N[C@@H](CC(C)C)C(=O)N[C@@H](CO)C(N)=O)NC(=O)[C@H](Cc3csc5ccccc35)NC(=O)[C@H](Cc3ccccc3C(F)(F)F)NC4=O)NC(=O)[C@H](Cc3ccccc3)NC(=O)[C@H](C)NC(=O)C3(CCCC3)NC(=O)[C@H](Cc3cccc(C(=O)O)c3)NC(=O)[C@H](CC(=O)O)NC1=O)NC(=O)[C@H](CC(C)(C)C)NC(=O)[C@H](CC(=O)O)NC2=O (relative stereo) [I-141, Ac-PL3-Asp-Npg-B5-Asp-3COOHF-CyLeu-Ala-Phe-Lys*3-PyrS2-2F3MeF-BztA-GlnR*3-Leu-Ser-NH2]
3 | > 10 µM | 200 to 750 nM |  | CC(=O)N1CCC[C@]12CC=CCCCC1(CCCC=CCCCOC(=O)N3CC[C@@]4(C3)NC(=O)[C@H](CCCCNC(=O)CC[C@@H](C(=O)N[C@@H](C)C(N)=O)NC(=O)[C@H](Cc3csc5ccccc35)NC(=O)[C@H](Cc3ccsc3)NC4=O)NC(=O)[C@H](Cc3ccccc3)NC(=O)[C@H](C)NC(=O)C(C)(C)NC(=O)[C@H](Cc3cccc(C(=O)O)c3)NC(=O)[C@H](CC(=O)O)NC1=O)NC(=O)[C@H](CC(C)(C)C)NC(=O)[C@H](CCO)NC2=O (relative stereo) [I-162, Ac-PL3-Hse-Npg-B5-Asp-3COOHF-Aib-Ala-Phe-Lys*3-PyrS2-3Thi-BztA-GlnR*3-Ala-NH2]
4 | 1.5 to 3 µM | < 50 nM |  | CC(=O)N1CCC[C@]12CC=CCCCC1(CCCC=CCCCOC(=O)N3CC[C@@]4(C3)NC(=O)[C@H](CCCCNC(=O)CC[C@@H](C(=O)N[C@@H](CC(C)C)C(N)=O)NC(=O)[C@H](Cc3csc5ccccc35)NC(=O)[C@H](Cc3ccccc3C(F)(F)F)NC4=O)NC(=O)[C@H](Cc3ccccc3)NC(=O)[C@H](C)NC(=O)[C@H](C)NC(=O)[C@H](Cc3cccc(C(=O)O)c3)NC(=O)[C@H](CC(=O)O)NC1=O)NC(=O)[C@H](CC(C)(C)C)NC(=O)[C@H](CC(=O)O)NC2=O (single isomer, unassigned) [I-104, Ac-PL3-Asp-Npg-B5-Asp-3COOHF-Ala-Ala-Phe-Lys*3-PyrS2-2F3MeF-BztA-GlnR*3-Leu-NH2]
5 | 3 to 10 µM | < 50 nM |  | CCC[C@@H]1NC(=O)[C@]23CCN(C2)C(=O)OCCCC=CCCCC2(CCCC=CC[C@]4(CCCN4C(C)=O)C(=O)N[C@@H](CC(=O)O)C(=O)N[C@@H](CC(C)(C)C)C(=O)N2)C(=O)N[C@@H](CC(=O)O)C(=O)N[C@@H](Cc2cccc(C(=O)O)c2)C(=O)NC(C)(C)C(=O)N[C@@H](C)C(=O)N[C@@H](Cc2ccccc2)C(=O)N[C@@H](CCCCNC(=O)CC[C@@H](C(=O)N[C@@H](C)C(N)=O)NC(=O)[C@H](Cc2csc4ccccc24)NC1=O)C(=O)N3 (relative stereo) [I-270, Ac-PL3-Asp-Npg-B5-Asp-3COOHF-Aib-Ala-Phe-Lys*3-PyrS2-Nva-BztA-GlnR*3-Ala-NH2]
6 | > 10 µM | < 50 nM |  | CC(=O)N1CCC[C@]12CC=CCCCC1(CCCC=CCCCOC(=O)N3CC[C@@]4(C3)NC(=O)[C@H](CCCCNC(=O)CC[C@@H](C(=O)N[C@@H](C)C(N)=O)NC(=O)[C@H](Cc3csc5ccccc35)NC(=O)[C@H](Cc3ccccc3C(F)(F)F)NC4=O)NC(=O)[C@H](Cc3ccccc3)NC(=O)[C@H](C)NC(=O)[C@H](C)NC(=O)[C@H](CN(CC(=O)O)CC(F)(F)F)NC(=O)[C@H](CC(=O)O)NC1=O)NC(=O)[C@H](CC(C)(C)C)NC(=O)[C@H](CC(N)=O)NC2=O (single isomer, unassigned) [I-113, Ac-PL3-Asn-Npg-B5-Asp-TfeGA-Ala-Ala-Phe-Lys*3-PyrS2-2F3MeF-BztA-GlnR*3-Ala-NH2]
7 | > 10 µM | 200 to 750 nM |  | CC(=O)N1CCC[C@]12CCCCCCC1(CCCCCCCCOC(=O)N3CC[C@@]4(C3)NC(=O)[C@H](CCCCNC(=O)CC[C@@H](C(=O)N[C@@H](C)C(N)=O)NC(=O)[C@H](Cc3csc5ccccc35)NC(=O)[C@H](Cc3ccsc3)NC4=O)NC(=O)[C@H](Cc3ccccc3)NC(=O)[C@H](C)NC(=O)C(C)(C)NC(=O)[C@H](Cc3cccc(C(=O)O)c3)NC(=O)[C@H](CC(N)=O)NC1=O)NC(=O)[C@H](CC(C)(C)C)NC(=O)[C@H](CC(=O)O)NC2=O (relative stereo) [I-177, Ac-PL3-Asp-Npg-B5-Asn-3COOHF-Aib-Ala-Phe-Lys*3-PyrS2-3Thi-BztA-GlnR*3-Ala-NH2]
8 |  | < 50 nM | 3 to 10 µM | CC(=O)N1CCC[C@]12CC=CCCCC1(CCCC=CCCCOC(=O)N3CC[C@@]4(C3)NC(=O)[C@H](CCCCNC(=O)CC[C@@H](C(=O)N[C@@H](C)C(N)=O)NC(=O)[C@H](Cc3ccc(Cl)c(Cl)c3)NC(=O)[C@H](Cc3ccccc3)NC4=O)NC(=O)[C@H](Cc3ccc(O)cc3)NC(=O)[C@H](C)NC(=O)C(C)(C)NC(=O)[C@H](Cc3cccc(C(=O)O)c3)NC(=O)[C@H](CC(=O)O)NC1=O)NC(=O)[C@H](CC(C)(C)C)NC(=O)[C@H](CC(=O)O)NC2=O (relative stereo) [I-477, Ac-PL3-Asp-Npg-B5-Asp-3COOHF-Aib-Ala-Tyr-Lys*3-PyrS2-Phe-34ClF-GlnR*3-Ala-NH2]
9 |  | < 50 nM | 1.5 to 3 µM | CC(=O)N1CCC[C@]12CC=CCCCC1(CCCC=CCCCOC(=O)N3CC[C@@]4(C3)NC(=O)[C@H](CCCCNC(=O)CC[C@@H](C(=O)N[C@@H](C)C(N)=O)NC(=O)[C@H](Cc3csc5ccccc35)NC(=O)[C@H](Cc3ccsc3)NC4=O)NC(=O)[C@H](Cc3ccc(O)cc3)NC(=O)[C@H](C)NC(=O)C(C)(C)NC(=O)[C@H](Cc3cccc(C(=O)O)c3)NC(=O)[C@H](CC(=O)O)NC1=O)NC(=O)[C@H](CC(C)(C)C)NC(=O)[C@H](CC(=O)O)NC2=O (relative stereo) [I-358, Ac-PL3-Asp-Npg-B5-Asp-3COOHF-Aib-Ala-Tyr-Lys*3-PyrS2-3Thi-BztA-GlnR*3-Ala-NH2]
10 | 3 to 10 µM | < 50 nM |  | CC(=O)N1CCC[C@]12CC=CCCCC1(CCCC=CCCCOC(=O)N3CC[C@@]4(C3)NC(=O)[C@H](CCCCNC(=O)CC[C@@H](C(=O)N[C@@H](C)C(N)=O)NC(=O)[C@H](Cc3csc5ccccc35)NC(=O)[C@H](Cc3ccccc3C(F)(F)F)NC4=O)NC(=O)[C@H](Cc3ccccc3)NC(=O)[C@H](C)NC(=O)[C@H](CC3CCCCC3)NC(=O)[C@H](Cc3cccc(C(=O)O)c3)NC(=O)[C@H](CC(=O)O)NC1=O)NC(=O)[C@H](CC1CCCCC1)NC(=O)[C@H](CC(=O)O)NC2=O (relative stereo) [I-103, Ac-PL3-Asp-Cha-B5-Asp-3COOHF-Cha-Ala-Phe-Lys*3-PyrS2-2F3MeF-BztA-GlnR*3-Ala-NH2]
11 | 1.5 to 3 µM | < 50 nM |  | CC(=O)N1CCC[C@]12CC=CCCCC1(CCCC=CCCCOC(=O)N3CC[C@@]4(C3)NC(=O)[C@H](CCCCNC(=O)CC[C@@H](C(=O)N[C@@H](C)C(N)=O)NC(=O)[C@H](Cc3csc5ccccc35)NC(=O)[C@H](Cc3ccccc3C(F)(F)F)NC4=O)NC(=O)[C@H](Cc3ccccc3)NC(=O)[C@H](C)NC(=O)[C@H](C)NC(=O)[C@H](Cc3cccc(C(=O)O)c3)NC(=O)[C@H](CC(=O)O)NC1=O)NC(=O)[C@H](CC1CCCCC1)NC(=O)[C@H](CC(=O)O)NC2=O (single isomer, unassigned) [I-97, Ac-PL3-Asp-Cha-B5-Asp-3COOHF-Ala-Ala-Phe-Lys*3-PyrS2-2F3MeF-BztA-GlnR*3-Ala-NH2]
12 | 3 to 10 µM | 50 to 200 nM |  | CC(=O)N1CCC[C@]12CC=CCCCC1(CCCC=CCCCOC(=O)N3CC[C@@]4(C3)NC(=O)[C@H](CCCCNC(=O)CC[C@@H](C(=O)N[C@@H](CC(C)C)C(N)=O)NC(=O)[C@H](Cc3csc5ccccc35)NC(=O)[C@H](Cc3ccccc3C(F)(F)F)NC4=O)NC(=O)[C@H](Cc3ccccc3)NC(=O)[C@H](C)NC(=O)[C@H](CC3CCCCC3)NC(=O)[C@H](Cc3cccc(C(=O)O)c3)NC(=O)[C@H](CC(=O)O)NC1=O)NC(=O)[C@H](CC(C)(C)C)NC(=O)[C@H](CC(=O)O)NC2=O (single isomer, unassigned) [I-110, Ac-PL3-Asp-Npg-B5-Asp-3COOHF-Cha-Ala-Phe-Lys*3-PyrS2-2F3MeF-BztA-GlnR*3-Leu-NH2]
13 |  | < 50 nM | 3 to 10 µM | CC(=O)N1CCC[C@]12CC=CCCCC1(CCCC=CCCCOC(=O)N3CC[C@@]4(C3)NC(=O)[C@H](CCCCNC(=O)CC[C@@H](C(=O)N[C@@H](C)C(N)=O)NC(=O)[C@H](Cc3csc5ccccc35)NC(=O)[C@H](Cc3ccsc3)NC4=O)NC(=O)[C@H](Cc3ccccc3)NC(=O)[C@H](C)NC(=O)[C@H](CC(N)=O)NC(=O)[C@H](Cc3cccc(C(=O)O)c3)NC(=O)[C@H](CC(=O)O)NC1=O)NC(=O)[C@H](CC(C)(C)C)NC(=O)[C@H](CC(=O)O)NC2=O (single isomer, unassigned) [I-393, Ac-PL3-Asp-Npg-B5-Asp-3COOHF-Asn-Ala-Phe-Lys*3-PyrS2-3Thi-BztA-GlnR*3-Ala-NH2]
14 |  | < 50 nM | > 10 µM | CC(=O)N1CCC[C@]12CC=CCCCC1(CCCC=CCCCOC(=O)N3CC[C@@]4(C3)NC(=O)[C@H](CCCCNC(=O)CC[C@@H](C(=O)N[C@@H](C)C(N)=O)NC(=O)[C@H](Cc3csc5ccccc35)NC(=O)[C@H](Cc3ccsc3)NC4=O)NC(=O)[C@H](Cc3ccccc3)NC(=O)[C@H](C)NC(=O)[C@@](C)(Cc3ccccc3)NC(=O)[C@H](Cc3cccc(C(=O)O)c3)NC(=O)[C@H](CC(=O)O)NC1=O)NC(=O)[C@H](CC(C)(C)C)NC(=O)[C@H](CC(=O)O)NC2=O (single isomer, unassigned) [I-456, Ac-PL3-Asp-Npg-B5-Asp-3COOHF-aMeDF-Ala-Phe-Lys*3-PyrS2-3Thi-BztA-GlnR*3-Ala-NH2]
